Measurements reported in patent publication US20230242544A1, “QUINAZOLINE COMPOUNDS, PREPARATION METHODS AND USES THEREOF” (INVENTISBIO CO., LTD., priority 2020, published 2023).

Amino acid sequences for entries named in this document (tags omitted).
UniProt P01116, whole entry G12D: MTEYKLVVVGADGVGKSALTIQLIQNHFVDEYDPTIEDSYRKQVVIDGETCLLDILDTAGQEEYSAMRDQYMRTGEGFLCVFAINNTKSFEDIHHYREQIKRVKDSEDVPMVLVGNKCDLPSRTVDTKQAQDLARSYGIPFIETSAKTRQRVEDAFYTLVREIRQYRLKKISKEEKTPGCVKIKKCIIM

Target: Ba/F3_KRAS^G12D cells (Homo sapiens, UniProt P01116, G12D, cells depend on it)
Test: Ba/F3 KRAS G12D cell proliferation assay (CellTiter-Glo)
Details: read-out: BaF3_KRAS^G12D IC50, treated for 3 days, cell-titer Glo, cell growth inhibition, tested form: 3TFA

## C#Cc1c(F)ccc2cc(O)cc(-c3c(C#N)cc4c(N5CC6CCC(C5)N6)nc(OC[C@@]56CCCN5C[C@H](F)C6)nc4c3F)c12 (single isomer, unassigned)
  GI50: < 500 nM
